Laboratory results: patent US20260382633A1, “KRAS INHIBITORS” (published 2026)

Sequences of proteins named here, by UniProt entry; tags and fusion partners are left off. A line that says so, or that is headed by a name, gives the form on record, which may keep a tag or linker. Residues count along the entry.
UniProt P01116, 1-188 with tags or gaps G12D: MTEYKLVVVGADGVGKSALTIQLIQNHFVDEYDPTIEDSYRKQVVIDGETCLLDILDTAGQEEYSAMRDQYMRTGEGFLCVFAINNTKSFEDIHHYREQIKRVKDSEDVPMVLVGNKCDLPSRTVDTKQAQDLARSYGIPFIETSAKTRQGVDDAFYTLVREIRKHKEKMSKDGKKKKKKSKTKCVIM

Tests used:
GP2d cells (KRAS G12D) = experiment: Cellular Proliferation Assay in GP2d Cells (KRAS G12D), CellTiter-Glo; conditions: read-out: GP2d IC50, 72 hours
SW620 cells (KRAS G12V) = experiment: Cellular proliferation assay in SW620 cells (KRAS G12V), CTG cell viability; conditions: read-out: SW620 IC50, 3 days
[1] = Mouse Pharmacokinetic Study; conditions: single, fed; for AUCinf / AUClast / MRTinf / Vss / T1/2 / Cmax: plasma; for T1/2: terminal half-life
p-ERK in AGS cells = p-ERK in AGS cells (Homo sapiens, UniProt P01116, G12D); experiment: p-ERK Assay in AGS cells; conditions: read-out: IC50 (p-ERK), 3 h at 37 °C

Compound | pIC50 (GP2d cells (KRAS G12D)) | pIC50 (SW620 cells (KRAS G12V)) | pIC50 (p-ERK in AGS cells) | also measured
C#Cc1c(F)ccc2cc(O)cc(-c3ncc4c(N(C)[C@@H]5C[C@H]5F)nc(OC[C@@]56CCCN5C[C@H]5C[C@H]56)nc4c3F)c12 | 6.39 | 6.60 | – | AUCinf ([1]; IV 2 mpk): 6440 ng·h/mL; AUClast ([1]; IV 2 mpk): 6430 ng·h/mL; MRTinf ([1]; IV 2 mpk): 1.01 h; Vss ([1]; IV 2 mpk): 0.313 L/kg; T1/2 ([1]; IV 2 mpk): 1.09 h; F % ([1]; PO 5 mpk): 7.3%; AUCinf ([1]; PO 5 mpk): 1180 ng·h/mL; AUClast ([1]; PO 5 mpk): 1160 ng·h/mL; Cmax ([1]; PO 5 mpk): 600 ng/mL; MRTinf ([1]; PO 5 mpk): 2.01 h; T1/2 ([1]; PO 5 mpk): 1.49 h
C#Cc1c(F)ccc2cc(O)cc(-c3ncc4c(N5C[C@H]6CC[C@@H](C5)N6)nc(OC[C@]56CCCN5C[C@H]5C[C@H]56)nc4c3F)c12 (racemic) | 8.19 | – | – | –
C#Cc1c(F)ccc2cc(N)cc(-c3ncc4c(N5CC6CCC(C5)N6)nc(OC[C@]56CCCN5[C@@H]5C[C@@H]5C6)nc4c3F)c12 | 6.70 | – | 6.77 | –
C#Cc1c(F)ccc2cc(O)cc(-c3ncc4c(N5CC6CCC(C5)N6)nc(OC[C@@]56CC(C)CN5C[C@H]5C[C@H]56)nc4c3F)c12 (single isomer, unassigned) | 6.93 | – | 6.84 | –
C#Cc1c(F)ccc2cc(O)cc(-c3ncc4c(N5CCC[C@@](C)(O)C5)nc(OC[C@@]56CCCN5C[C@H]5C[C@H]56)nc4c3F)c12 | 7.24 | 6.36 | – | –
C#Cc1c(F)ccc2cc(O)cc(-c3ncc4c(N5CCC[C@@](C)(O)C5)nc(OC[C@@]56CC(=C)CN5C[C@H]5C[C@H]56)nc4c3F)c12 | 7.26 | 6.67 | – | –
C#Cc1c(F)ccc2cc(O)cc(-c3ncc4c(N5CCC=C(F)C5)nc(OC[C@@]56CC(=C)CN5C[C@H]5C[C@H]56)nc4c3F)c12 | 7.07 | 6.72 | – | –
[2H]C([2H])([2H])N(c1nc(OC[C@@]23CC(=C)CN2C[C@H]2C[C@H]23)nc2c(F)c(-c3cc(O)cc4ccc(F)c(C#C)c34)ncc12)[C@@H]1C[C@H]1F | 6.46 | 6.79 | – | –
[2H]C([2H])([2H])N(c1nc(OC[C@@]23CC4(CC4)CN2C[C@H]2C[C@H]23)nc2c(F)c(-c3cc(O)cc4ccc(F)c(C#C)c34)ncc12)[C@@H]1C[C@H]1F | 6.33 | 6.33 | – | –
Nc1cc(Cl)c(C(F)(F)F)c(-c2ncc3c(N4CC5CCC(C4)N5)nc(OC[C@]45CCCN4[C@@H]4C[C@@H]4C5)nc3c2F)c1 | 6.95 | – | 6.97 | –
C#Cc1c(F)ccc2cc(O)cc(-c3ncc4c(N5CC6CCC(C5)N6)nc(OC[C@]56CC(=C)CN5C[C@H]5C[C@H]56)nc4c3F)c12 (single isomer, unassigned) | 7.51 | – | 7.51 | –
C#Cc1c(F)ccc2cc(O)cc(-c3ncc4c(N(C)C5CC5)nc(OC[C@@]56CCCN5C[C@H]5C[C@H]56)nc4c3F)c12 | 6.03 | 6.00 | – | –
C#Cc1c(F)ccc2cc(O)cc(-c3ncc4c(N5CCC6CC6C5)nc(OC[C@@]56CCCN5C[C@H]5C[C@H]56)nc4c3F)c12 (stereo partly drawn) | 6.05 | 5.51 | – | –
C#Cc1c(F)ccc2cc(O)cc(-c3ncc4c(N5CC6CCC(C5)N6)nc(OC[C@@]56CCCN5C[C@H]5C[C@H]56)nc4c3F)c12 | 8.19 | – | – | AUCinf ([1]; IV 2 mpk): 1190 ng·h/mL; AUClast ([1]; IV 2 mpk): 1130 ng·h/mL; MRTinf ([1]; IV 2 mpk): 3.90 h; Vss ([1]; IV 2 mpk): 6.57 L/kg; T1/2 ([1]; IV 2 mpk): 10.8 h; F % ([1]; PO 10 mpk): 0.8%; AUCinf ([1]; PO 10 mpk): 46.9 ng·h/mL; AUClast ([1]; PO 10 mpk): 43 ng·h/mL; Cmax ([1]; PO 10 mpk): 15.8 ng/mL; MRTinf ([1]; PO 10 mpk): 3.08 h; T1/2 ([1]; PO 10 mpk): 2.44 h
C#Cc1c(F)ccc2cc(O)cc(-c3ncc4c(N5C[C@H]6CC[C@@H](C5)N6)nc(OC[C@]56CCCN5[C@@H]5C[C@@H]5C6)nc4c3F)c12 | 7.89 | – | – | –
C#Cc1c(F)ccc2cc(O)cc(-c3ncc4c(N5CCCOCC5)nc(OC[C@@]56CC(=C)CN5C[C@H]5C[C@H]56)nc4c3F)c12 | 7.13 | 7.42 | – | –
C#Cc1c(F)ccc2cc(N)cc(-c3ncc4c(N5CC6CCC(C5)N6)nc(OC[C@@]56CCCN5C[C@H]5C[C@H]56)nc4c3F)c12 | 7.60 | – | 7.96 | –

Compound | pIC50 (GP2d cells (KRAS G12D)) | pIC50 (SW620 cells (KRAS G12V)) | pIC50 (p-ERK in AGS cells) | also measured
C#Cc1c(F)ccc2cc(O)cc(-c3ncc4c(N5C[C@H]6CC[C@@H](C5)N6)nc(OC[C@@]56CCCN5[C@@H]5C[C@@H]5C6)nc4c3F)c12 | 7.72 | – | – | –
[2H]C([2H])([2H])N(c1nc(OC[C@@]23CCCN2C[C@H]2C[C@H]23)nc2c(F)c(-c3cc(O)cc4ccc(F)c(C#C)c34)ncc12)[C@@H]1C[C@H]1F | 6.27 | 6.52 | – | AUCinf ([1]; IV 2 mpk): 8270 ng·h/mL; AUClast ([1]; IV 2 mpk): 8250 ng·h/mL; MRTinf ([1]; IV 2 mpk): 1.19 h; Vss ([1]; IV 2 mpk): 0.289 L/kg; T1/2 ([1]; IV 2 mpk): 1.11 h; F % ([1]; PO 5 mpk): 7.4%; AUCinf ([1]; PO 5 mpk): 1530 ng·h/mL; AUClast ([1]; PO 5 mpk): 1520 ng·h/mL; Cmax ([1]; PO 5 mpk): 958 ng/mL; MRTinf ([1]; PO 5 mpk): 2.12 h; T1/2 ([1]; PO 5 mpk): 1.47 h
C#Cc1c(F)ccc2cc(O)cc(-c3ncc4c(N5CC6CCC(C5)N6)nc(OC[C@]56CC7(CC7)CN5C[C@H]5C[C@H]56)nc4c3F)c12 | 6.80 | – | 7.22 | –
Oc1cc(Cl)c(C(F)(F)F)c(-c2ncc3c(N4C[C@H]5CC[C@@H](C4)N5)nc(OC[C@]45CCCN4[C@@H]4C[C@@H]4C5)nc3c2F)c1 | 5.91 | – | 6.11 | –
C#Cc1c(F)ccc2cc(O)cc(-c3ncc4c(N5CC6CCC(C5)N6)nc(OC[C@@]56CCCN5C[C@H]5C[C@H]56)nc4c3OC)c12 | 6.80 | – | 7.31 | –
C#Cc1c(F)ccc2cc(N)cc(-c3ncc4c(N5C[C@H]6CC[C@@H](C5)N6)nc(OC[C@]56CCCN5C[C@H]5C[C@H]56)nc4c3F)c12 (racemic) | 7.70 | – | 7.17 | –
C#Cc1c(F)ccc2cc(O)cc(-c3ncc4c(N5CC6CCC(C5)N6)nc(OC[C@@]56CC(=C)CN5C[C@H]5C[C@H]56)nc4c3F)c12 (single isomer, unassigned) | 8.22 | – | 8.30 | –
C#Cc1c(F)ccc2cc(O)cc(-c3ncc4c(N5CCCC(F)(F)C5)nc(OC[C@@]56CC(=C)CN5C[C@H]5C[C@H]56)nc4c3F)c12 | 6.94 | 6.28 | – | –
C#Cc1c(F)ccc2cc(O)cc(-c3ncc4c(N5CC6CCC(C5)N6)nc(OC[C@]56CCCN5[C@H]5C[C@H]5C6)nc4c3F)c12 | 6.82 | – | – | –
C#Cc1c(F)ccc2cc(O)cc(-c3ncc4c(N5CC6CCC(C5)N6)nc(OC[C@]56CCCN5C[C@@H]5C[C@@H]56)nc4c3F)c12 | 8.43 | – | – | –
C#Cc1c(F)ccc2cc(O)cc(-c3ncc4c(N5CC6CCC(C5)N6)nc(OC[C@]56CC(=C)CN5[C@@H]5C[C@@H]5C6)nc4c3F)c12 | 7.37 | – | 7.48 | –
C#Cc1c(F)ccc2cc(O)cc(-c3ncc4c(N5CCOCC6CC65)nc(OC[C@@]56CCCN5C[C@H]5C[C@H]56)nc4c3F)c12 (stereo partly drawn) | 6.07 | 6.58 | – | –
C#Cc1c(F)ccc2cc(O)cc(-c3ncc4c(N5CC6CCC(C5)N6)nc(OC[C@@]56CC7(CC7)CN5C[C@H]5C[C@H]56)nc4c3F)c12 (single isomer, unassigned) | 8.10 | – | 8.70 | –
C#Cc1c(F)ccc2cc(O)cc(-c3ncc4c(N5CCC=C(F)C5)nc(OC[C@@]56CC7(CC7)CN5C[C@H]5C[C@H]56)nc4c3F)c12 | 6.41 | 6.39 | – | –
C#Cc1c(F)ccc2cc(O)cc(-c3ncc4c(N5CC6CCC(C5)N6)nc(OC[C@@]56CCCN5[C@H]5C[C@H]5C6)nc4c3F)c12 | 7.77 | – | – | –
C#Cc1c(F)ccc2cc(O)cc(-c3ncc4c(N5CCCOCC5)nc(OC[C@@]56CC7(CC7)CN5C[C@H]5C[C@H]56)nc4c3F)c12 | 6.83 | 6.72 | – | –
C#Cc1c(F)ccc2cc(O)cc(-c3ncc4c(N5CCC=C(F)C5)nc(OC[C@@]56CCCN5C[C@H]5C[C@H]56)nc4c3F)c12 | 7.64 | 6.62 | – | AUCinf ([1]; IV 2 mpk): 6960 ng·h/mL; AUClast ([1]; IV 2 mpk): 6950 ng·h/mL; MRTinf ([1]; IV 2 mpk): 0.700 h; Vss ([1]; IV 2 mpk): 0.201 L/kg; T1/2 ([1]; IV 2 mpk): 0.973 h; F % ([1]; PO 5 mpk): 1.7%; AUCinf ([1]; PO 5 mpk): 290 ng·h/mL; AUClast ([1]; PO 5 mpk): 280 ng·h/mL; Cmax ([1]; PO 5 mpk): 280 ng/mL; MRTinf ([1]; PO 5 mpk): 2.17 h; T1/2 ([1]; PO 5 mpk): 2.16 h

pIC50: −log10 of the molar value.
